Target: hROMK (hKir1.1) (Homo sapiens (Human), UniProt P48048)
Test: Thallium Flux Assay
Assay type: cell-based
Details: Table 2; HEK293 cells stably expressing hROMK (hKir1.1)

Sequences of proteins named here, by UniProt entry; tags and fusion partners are left off. A change or cut given only in a name is not applied to a line headed by its entry.
UniProt P48048: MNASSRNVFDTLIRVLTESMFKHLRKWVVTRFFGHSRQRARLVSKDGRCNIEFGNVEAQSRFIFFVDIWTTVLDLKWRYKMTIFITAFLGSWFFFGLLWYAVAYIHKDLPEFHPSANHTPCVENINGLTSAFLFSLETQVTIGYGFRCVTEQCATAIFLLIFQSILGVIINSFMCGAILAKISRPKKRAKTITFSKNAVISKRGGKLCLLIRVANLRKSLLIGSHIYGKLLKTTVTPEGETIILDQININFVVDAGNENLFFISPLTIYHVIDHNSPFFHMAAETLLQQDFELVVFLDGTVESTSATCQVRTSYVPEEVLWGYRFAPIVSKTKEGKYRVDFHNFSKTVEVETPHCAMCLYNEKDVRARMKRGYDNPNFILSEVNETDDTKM

`O=[N+]([O-])c1ccc(CCN2CCN(CCc3ccc([N+](=O)[O-])cc3)CC2)cc1` [Example 1, 1,4-Bis[2-(4-nitrophenyl)ethyl]piperazine] was tested, and the IC50 was 66 nM.

— patent US9073882B2, “Inhibitors of the renal outer medullary potassium channel” (Merck Sharp & Dohme Corp., priority 2010, dated 2015)
